Consider five compounds from US9309186B2, “Polymorphic form of a long-acting beta-2 adrenoceptor agonist” (Laboratorios Lesvi S.L., priority 2012, dated 2016).

One data set in a line: physchem. The following applies: 25 °C, water, thermodynamic from solid, solubility in water, measured at 25 degrees C.
For data set [1] the following is noted: for Solubility range: 0.5 mL milliQ water, 25° C., stirred 1 hour, minor value = highest concentration completely dissolved, major value = lowest concentration not completely dissolved.

The structures appear in SMILES notation.

In “physchem”, `COc1ccc(C[C@@H](C)NC[C@H](O)c2ccc(O)c(NC=O)c2)cc1.O=C(O)C(O)C(O)C(=O)O` [form D, (R,R)-Formoterol-L-tartrate] came in with a solubility at 1 h of 38 to 83 mg/mL. In data set [1], the Solubility range lay in the range of 38 to 83 mg/mL and the “solubility in water as defined according to The United States Pharmacopeia, 24th ed.” value (“solubility in water as defined according” for short) is listed as “soluble”. In the case of `COc1ccc(C[C@@H](C)NC[C@H](O)c2ccc(O)c(NC=O)c2)cc1.O=C(O)C(O)C(O)C(=O)O` [form C, (R,R)-Formoterol-L-tartrate], in data set [1], the Solubility range lay in the range of 12 to 18 mg/mL. With `COc1ccc(C[C@@H](C)NC[C@H](O)c2ccc(O)c(NC=O)c2)cc1.O=C(O)C(O)C(O)C(=O)O` [form B, (R,R)-Formoterol-L-tartrate], in data set [1], the Solubility range is 24 to 32 mg/mL and the “solubility in water as defined according” value is reported as “sparingly soluble”.

As to `COc1ccc(C[C@@H](C)NC[C@H](O)c2ccc(O)c(NC=O)c2)cc1.O=C(O)C(O)C(O)C(=O)O` [form A, (R,R)-Formoterol-L-tartrate], in data set [1], the Solubility range was in the range of 14 to 17 mg/mL and the “solubility in water as defined according” value is given as “sparingly soluble”. In data set [1], `COc1ccc(C[C@@H](C)NC[C@H](O)c2ccc(O)c(NC=O)c2)cc1.O=C(O)C(O)C(O)C(=O)O` [Mixture form A/form D, (R,R)-Formoterol-L-tartrate] registered a Solubility range of 14 to 17 mg/mL.

The solubility is the concentration that dissolves in the medium under given conditions. A high value points to much dissolved substance.
